From patent publication US9808528B2, “Protein-polymer-drug conjugates and methods of using same” (priority 2014, dated 2017)
pIC50: −log10 of the molar value.

Experiments:
JIMT-1 cells = assay: Tumor growth response, JIMT-1 xenograft; type: in vivo, mice; conditions: single IV dose day 1; for tumor volume response (in words), FIG. 2: conjugates […], trastuzumab 10 mg/kg, Kadcyla 10 mg/kg
Text: (§1) Mice were sacrificed when tumors reached a size of 800 to 1500 mm^3.

BT474 tumor fragments = assay: Tumor growth response, BT474 xenograft; type: in vivo, mice; conditions: single IV dose day 1; conjugates […] and 5 mg/kg; trastuzumab 10 mg/kg
Text: as §1

NCI-H1581 = assay: Cytotoxicity assay (CellTiter-Glo); type: cell-based; conditions: HER2 molecules per cell 13,000; Her2 expression 1+; 72 hours or 6 days
[1] = Mouse plasma PK (Example 27, Table IX); conditions: total AF-HPA by LC-MS/MS; single IV dose, CD-1 mice
[2] = SDS-PAGE of the conjugate under non-reducing and reducing conditions; type: physicochemical

Trastuzumab [reference compound]
tumor volume response (in words), FIG. 4A (JIMT-1 cells; Example 14 at 2, 0.67 and 0.3 mg/kg, trastuzumab 20 mg/kg, Kadcyla 20 mg/kg): increase of tumor volume
tumor volume response (in words), FIG. 2 (JIMT-1 cells): increase of tumor volume
tumor volume response (in words), FIG. 1 (BT474 tumor fragments): increase of tumor volume

Trastuzumab-((EG2-MI (2%)-(10 kDa PHF-BA (30%)-(AF-HPA-Ala (9%)) [Example 7]
pIC50 (NCI-H1581): 8.64
tumor volume response (in words), FIG. 2 (JIMT-1 cells): reduction of tumor volume
Plasma PK AUC0 to 336 [1]: 22900 ng·h/mL

Trastuzumab-((EG2-MI (3%))-(10 kDa PHF-BA (30%)-(AF-HPA-Ala (8%)) [Example 4]
tumor volume response (in words), FIG. 2 (JIMT-1 cells): reduction of tumor volume
tumor volume response (in words), FIG. 1 (BT474 tumor fragments): reduction of tumor volume
behaviour on SDS-PAGE under reducing conditions [2]: dissociated in to heavy and light chain fragments
Plasma PK AUC0 to 336 [1]: 20100 ng·h/mL
